Test results from patent US20220125886A1, “CO-FORMULATIONS OF AMYLIN ANALOGUES WITH INSULIN ANALOGUES FOR TREATMENT OF DIABETES” (The Board of Trustees of the Leland Stanford Junior …, priority 2019, published 2022).

Tests used:
[1] = diabetic pigs, co-formulation (1:6) containing CB[7]-PEG at 10-13 meals over six weeks
[2] = in humans; cited from earlier work
[3] = in pigs; cited from earlier work
[4] = healthy Sprague Dawley rats, 0.2 mg/kg daily for six weeks

In the case of “cucurbit[7]uril (CB[7])-poly(ethylene glycol) (PEG) conjugate [CB[7]-PEG]”, the “liver and kidney histology (H&E, Masson's Trichrome), treated vs untreated” value (end of six weeks, single-blind assessment) is reported as “no differences in fat content or fibrosis”, the ALP [4] is reported as “within the range of healthy rats” and the AST [4] is reported as “within the range of healthy rats”. For the same substance, the BUN [4] was “within the range of healthy rats”, the creatine [4] was “within the range of healthy rats” and the ALT (healthy Sprague Dawley rats, 0.2 mg/kg daily for six weeks, days 14, 28, 42) was “within the range of healthy rats”. For the same substance, the ALT [1] was “within the normal range for healthy pigs”, the AST [1] was “within the normal range for healthy pigs” and the BUN [1] was “within the normal range for healthy pigs”. For the same substance, the bilirubin [1] was “within the normal range for healthy pigs” and the creatinine ([1]; Week 0 vs Week 6 p=0.001) was “within the normal range for healthy pigs”.
For insulin, the “insulin duration of action” value [2] is listed as 4 h and the “insulin duration of action” value [3] is listed as 2 h.

Read-outs that look alike come from different tables or passages of the source.
